PubChem BioAssay (NCATS)
Only a part is listed here, and it is no random draw. Inconclusive results are not listed. Active and inactive are the calls of the source. The call rests on the fitted dose curve; in most records, active means well fitted curve in the direction sought with a large enough effect; inconclusive means small, poorly fitted or top-dose-only effect, or another doubt; inactive means no such curve, though single readings can be large; an effect the other way counts as inactive or inconclusive.

Key:
HEK293 = test: Cytotoxic Profiling of Annotated Libraries Using Quantitative High-Throughput Screening (AID 1296008); conditions: Five cell lines viability, CellTiter-Glo ATP luminescence, 48-72 h; max response: stronger effect = lower value; further: nearly all actives have a fitted effect of over 60% in size
HaCat = test: as above; conditions: Five cell lines viability, CellTiter-Glo ATP luminescence, 48-72 h; stronger effect = lower value
KB-3-1 = test: as above; conditions: Five cell lines viability, CellTiter-Glo ATP luminescence, 48-72 h, stronger effect = lower value
NIH3T3 = test: as above; conditions: Five cell lines viability, CellTiter-Glo ATP luminescence, 48-72 h; stronger effect = lower value
CRL-7250 = normal cell line; test: qHTS assay to identify novel small-molecules to repurpose for Merkel cell carcinoma treatment (AID 1296009); conditions: MCC and control cell lines, CellTiter-Glo viability, 72 h; at 44.8 µM (top of the series) unless noted; further: nearly all actives have a fitted effect of over 60% in size
MCC-13 = test: as above; conditions: MCC and control cell lines, CellTiter-Glo viability, 72 h; at 46 µM (top of the series) unless noted
MCC-26 = test: as above; conditions: MCC and control cell lines, CellTiter-Glo viability, 72 h; at 46 µM (top of the series) unless noted
MKL-1 = test: as above; conditions: MCC and control cell lines, CellTiter-Glo viability, 72 h; at 46 µM (top of the series) unless noted
MKL-2 = test: as above; conditions: MCC and control cell lines, CellTiter-Glo viability, 72 h; at 46 µM (top of the series) unless noted
WaGa = test: as above; conditions: MCC and control cell lines, CellTiter-Glo viability, 72 h; at 46 µM (top of the series) unless noted
C33A = test: Primary qHTS to identify gynecologic anti-cancer compounds using libraries of approved drugs and bioactive compounds (AID 1345084); conditions: Gynecologic cancer cell panel viability, ATPlite luminescence, 48 h; at 57.5 µM (top of the series) unless noted; further: nearly all actives have a fitted effect of over 55% in size
Procedure, shortened: (§1)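 Cells, 1,000 per well, were allowed to settle for 16 h at 37 C before compound addition. Five concentrations were tested for 48 h, and viability was read by ATPlite luminescence after 15 min at room temperature.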

CAOV3 = test: as above; conditions: Gynecologic cancer cell panel viability, ATPlite luminescence, 48 h; at 57.5 µM (top of the series) unless noted
Procedure, shortened: as §1

CASKI = test: as above; conditions: Gynecologic cancer cell panel viability, ATPlite luminescence, 48 h; at 57.5 µM (top of the series) unless noted
Procedure, shortened: as §1

Es-2 = test: as above; conditions: Gynecologic cancer cell panel viability, ATPlite luminescence, 48 h; at 57.5 µM (top of the series) unless noted
Procedure, shortened: as §1

HeLa = test: as above; conditions: Gynecologic cancer cell panel viability, ATPlite luminescence, 48 h; at 57.5 µM (top of the series) unless noted
Procedure, shortened: as §1

Hek293T = test: as above; conditions: Gynecologic cancer cell panel viability, ATPlite luminescence, 48 h, control line for the selectivity index; at 57.5 µM (top of the series) unless noted
Procedure, shortened: as §1

JEG-3 = test: as above; conditions: Gynecologic cancer cell panel viability, ATPlite luminescence, 48 h; at 57.5 µM (top of the series) unless noted
Procedure, shortened: as §1

OV90 = test: as above; conditions: Gynecologic cancer cell panel viability, ATPlite luminescence, 48 h; at 57.5 µM (top of the series) unless noted
Procedure, shortened: as §1

PA-1 = test: as above; conditions: Gynecologic cancer cell panel viability, ATPlite luminescence, 48 h; at 57.5 µM (top of the series) unless noted
Procedure, shortened: as §1

SKOV3 = test: as above; conditions: Gynecologic cancer cell panel viability, ATPlite luminescence, 48 h; at 57.5 µM (top of the series) unless noted
Procedure, shortened: as §1

Tov-21-G = test: as above; conditions: Gynecologic cancer cell panel viability, ATPlite luminescence, 48 h; at 57.5 µM (top of the series) unless noted
Procedure, shortened: as §1

Tov112D = test: as above; conditions: Gynecologic cancer cell panel viability, ATPlite luminescence, 48 h; at 57.5 µM (top of the series) unless noted
Procedure, shortened: as §1

astro = test: Drug repurposing screens with cells derived from glioblastoma tumor samples (AID 1345199); conditions: viability, ATP luminescence, 48 h; at 45.9 µM (top of the series) unless noted; further: nearly all actives have a fitted effect of over 40% in size
Procedure, shortened: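 Four patient lines of CD133+ GBM neurospheres were screened at several concentrations; hits were retested in those lines plus three slower-growing GBM lines, using 48-hour treatment and ATP-based viability.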
On the % scale 0 is the no-effect control and ±100 the full control effect.

CCNC(C)Cc1ccc2c(c1)OCO2 (stereo not drawn)
inactive: max response (HEK293) -5.82% | max response (HaCat) 0.721% | max response (KB-3-1) -8.96% | max response (NIH3T3) -5.77% | outcome (CRL-7250) inactive [at 92 µM] | activity change, negative = cytotoxicity (MCC-13) -2.17% [at 92.7 µM] | activity change, negative = cytotoxicity (MCC-26) -2.52% [at 92.7 µM] | activity change, negative = cytotoxicity (MKL-1) -14.2% [at 92.7 µM] | activity change, negative = cytotoxicity (MKL-2) 8.25% [at 92.7 µM] | activity change, negative = cytotoxicity (WaGa) -6.51% [at 92.7 µM] | activity change, negative = cytotoxicity (C33A) 1.96% [at 116 µM] | activity change, negative = cytotoxicity (CAOV3) -1.81% [at 116 µM] | activity change, negative = cytotoxicity (CASKI) -1.61% [at 116 µM] | activity change, negative = cytotoxicity (Es-2) -0.134% [at 116 µM] | activity change, negative = cytotoxicity (HeLa) -6.4% [at 116 µM] | activity change, negative = cytotoxicity (Hek293T) -31.5% [at 116 µM] | activity change, negative = cytotoxicity (JEG-3) 0.262% [at 116 µM] | activity change, negative = cytotoxicity (OV90) 16.2% [at 116 µM] | activity change, negative = cytotoxicity (PA-1) -11.1% [at 116 µM] | activity change, negative = cytotoxicity (SKOV3) -14.9% [at 116 µM] | activity change, negative = cytotoxicity (Tov-21-G) -1.79% [at 116 µM] | activity change, negative = cytotoxicity (Tov112D) -0.897% [at 116 µM] | activity, negative = cell killing (astro) -10.6% [at 108 µM]
